These results are taken from EP2954896A1, “Small molecule inhibitors of the E3 Ligase Skp2 in depression and other diseases” (Max-Planck-Gesellschaft zur Förderung der Wissenschaften …, priority 2014, dated 2015).

In one assay the test system is CA1 neuronal activity. The assay is described as follows: Voltage-sensitive dye imaging (VSDI) of evoked CA1 neuronal activity in brain slices. Also noted: species or system mice. The conditions noted are these: bath application 10 µM. The method, then:
Brain slices were obtained from 11-18 week-old male FKBP51+/+ and FKBP51-/- litter mates (Fig. 1) or from BL6 mice (Fig. 7). Preparation and staining of slices with the voltage-sensitive dye Di-4-ANEPPS as well as VSDI and data analysis were performed essentially as described (von Wolff et al. (2011) J. Psychiatr. Res. 45: 256-261; Refojo et al. (2011) Science 333: 1903-1907). Four acquisitions subsequently recorded at intervals of 5 s were averaged. Neuronal activity was evoked by square pulse electrical stimuli (200 µs pulse width) delivered via a custom-made monopolar tungsten electrode to the Schaffer collateral-commissural pathway. The circular ROI was placed into the CA1 stratum radiatum near the stimulation electrode. The ROI also covered a part of the adjacent CA1 stratum pyramidale (Fig. 1 B). The intensity of voltage stimulation was adjusted to produce FDSs with peak amplitudes of ~30% of the highest attainable value.
Irrespective of the question whether AD-induced increase of autophagic markers in all cases indicates enhanced protein turnover, autophagic pathways have been linked to synaptic function. […] Hippocampal CA3-CA1 synapses were electrically stimulated in brain slices from Fkbp51^+/+ and Fkbp51^-/- mice, and CA1 neuronal activity was monitored by means of voltagesensitive dye imaging (VSDI). […]

Assay [1] in a line: Chronic PAR treatment after chronic social defeat stress: behavioral tests (open field, social avoidance, forced swim). The conditions noted are these: CSDS-exposed and control animals. The class given is in vivo, mice. The source says: After cessation of the stressor, groups were subdivided into vehicle-treated and paroxetine-treated animals, resulting in 8 groups (n = 7-13 per group). The treatment phase lasted for three weeks. The behavioral tests took place during the last week of the paroxetine treatment. The CSDS paradigm lasted for 21 days. Briefly, the experimental mice were introduced into the home cage (45 cm x 25 cm) of a dominant resident mouse and defeated shortly after. When the defeat was achieved, the animals were separated by a wire mesh, preventing physical but allowing sensory contact for 24 h. Each day, stressed animals were defeated by another unfamiliar, dominant resident mouse in order to exclude a repeated encounter throughout the experiment. The daily defeat was performed between 11:00 and 16:00 h; varying starting times reduced the predictability of the stressor and therefore minimized a potential habituation effect. […] Both stress and control animals were handled daily during the stress procedure; body weight for all mice was assessed at the beginning of the experiment, after the cessation of the stress period, and on the day of killing. […] All tests were analyzed using an automated videotracking system (Anymaze 4.20, Stoelting, Wood Dale, IL). […] Time spent immobile (floating) and time spent struggling was scored by an experienced observer, blind to treatment or condition of the animals.

Another assay deals with autophagy markers. As to the kind of experiment: Autophagy markers in protein extracts of hippocampus and prefrontal cortex after acute antidepressant injection. The class given is in vivo. The conditions noted are these: Fkbp51+/+ mice, 10 mgkg-1. How it is done:
Western blot analysis was performed on eluates from ColPs or with protein extracts from cells or tissue. Protein extracts were obtained by lysing cells or tissue (prelysed as described in the paragraph before) in 62.5 mM Tris, 2% SDS and 10% sucrose, supplemented with protease (Sigma, P2714) and phosphatase (Roche, 04906837001) inhibitor cocktail. Samples were sonicated and heated at 95 °C for 5 min. Proteins were separated by SDS-PAGE and electro-transferred onto nitrocellulose membranes. Blots were placed in Tris-buffered saline, supplemented with 0.05% Tween (Sigma, P2287) and 5% non-fat milk for 1 h at room temperature and then incubated with primary antibody (diluted in TBS/0.05% Tween) overnight at 4 °C. […]
To evaluate molecular effects of ADs that may depend on FKBP51 and parallel the behavioral phenotype, autophagy markers were analyzed in protein extracts from the hippocampus and prefrontal cortex after PAR injection (10 mgkg^-1).

SMILES strings stand for the structures.

Regarding `Fc1ccc([C@@H]2CCNC[C@H]2COc2ccc3c(c2)OCO3)cc1` [PAR, paroxetine], the “ROI-extracted fast, depolarization-mediated imaging signals (FDSs)” value in the assay on CA1 neuronal activity (slices from Fkbp51+/+ mice) is listed as “enhanced”; in the assay with CA1 neuronal activity (slices from Fkbp51-/- animals), “not observed”. Moreover, the “social behavior (social interaction ratio), social avoidance test” value is reported as “but not in 51 KO mice” in assay [1] (51 KO mice) and “significantly enhanced social behavior” in assay [1] (wild-type mice). Also, the “ratio of LC3B-II/I” value in the assay with autophagy markers is recorded as “increased”.
